Our source for the z-score values is PubChem BioAssay AID1347419 (Sanford-Burnham Center for Chemical Genomics, 2020).

The chains behind the UniProt entries cited, without tags or fusion partners.
UniProt Q14289, whole entry, looked up: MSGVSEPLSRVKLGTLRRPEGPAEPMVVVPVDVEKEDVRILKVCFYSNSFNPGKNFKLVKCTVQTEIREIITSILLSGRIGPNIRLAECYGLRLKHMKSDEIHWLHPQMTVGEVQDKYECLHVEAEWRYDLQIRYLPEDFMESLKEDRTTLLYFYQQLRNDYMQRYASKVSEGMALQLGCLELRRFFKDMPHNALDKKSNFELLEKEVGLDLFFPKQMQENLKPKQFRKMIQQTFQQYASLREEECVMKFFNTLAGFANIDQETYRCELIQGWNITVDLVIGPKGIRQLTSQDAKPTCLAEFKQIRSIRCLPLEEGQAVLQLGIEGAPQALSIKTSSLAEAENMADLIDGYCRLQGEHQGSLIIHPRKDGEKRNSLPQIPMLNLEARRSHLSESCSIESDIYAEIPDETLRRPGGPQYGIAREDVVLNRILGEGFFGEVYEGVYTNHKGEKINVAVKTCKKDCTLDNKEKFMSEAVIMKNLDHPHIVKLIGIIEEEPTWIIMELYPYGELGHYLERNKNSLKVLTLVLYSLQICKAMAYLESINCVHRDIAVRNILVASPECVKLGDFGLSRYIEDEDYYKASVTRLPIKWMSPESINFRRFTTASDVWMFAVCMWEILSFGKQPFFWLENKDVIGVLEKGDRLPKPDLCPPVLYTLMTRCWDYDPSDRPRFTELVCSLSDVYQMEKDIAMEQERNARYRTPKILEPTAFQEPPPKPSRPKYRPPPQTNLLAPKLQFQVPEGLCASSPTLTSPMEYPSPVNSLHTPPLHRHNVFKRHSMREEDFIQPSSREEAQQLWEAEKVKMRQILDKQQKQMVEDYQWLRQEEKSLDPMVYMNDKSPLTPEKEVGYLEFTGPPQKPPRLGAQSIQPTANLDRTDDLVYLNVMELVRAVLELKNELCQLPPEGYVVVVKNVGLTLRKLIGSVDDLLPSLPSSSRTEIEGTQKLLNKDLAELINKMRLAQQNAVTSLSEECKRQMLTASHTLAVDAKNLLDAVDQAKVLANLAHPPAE

The list shows a part of the results, in another mix than the full data. Calls of active or inactive are those of the source.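 The calls were made as follows: active = Z-score of -3 or lower, scaled per plate to the spread of control and sample wells; inactive = z-score above -3.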

The experiment addresses Protein-tyrosine kinase 2-beta (Homo sapiens) (UniProt Q14289). Put plainly: antagonists of Pyk2 self-association, primary screen, Q293 cells, FERM NanoBiT luminescence, HTS (AID 1347419).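 Also: the deposit names both 25 µM and 10 µM; negative z-score means lost luminescence so less FERM oligomerization.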 More on the design: dose or concentration left out as unconfirmed. Particulars: active compounds read low.
Consider `CP(=O)(Oc1ccccc1)N1CCOC1=O` (centres undefined), for which the z-score is inactive: -0.49.

For `COc1ccccc1OP(C)(=O)Nc1c(C)n(C)n(-c2ccccc2)c1=O` (centres undefined), the z-score is inactive: 0.47.

With `CCN(CC)CC(O)COC(=O)C(O)(c1ccccc1)C1CCCCC1` (centres undefined), the z-score was inactive: 0.08.

As for `CP(=O)(Nc1ccc(Cl)cc1)Oc1ccc(F)cc1` (centres undefined), the z-score is inactive: 1.8.

`CC(C)(C)c1ccc(OP(C)(=O)O)cc1`: the z-score is inactive: 1.17.

Turning to `CP(=O)(OC12CC3CC(CC(C3)C1)C2)OC12CC3CC(CC(C3)C1)C2`, the z-score was inactive: 0.26.

Take `CCOC(=O)c1ccc(NP(C)(=O)Oc2ccc(Cl)cc2)cc1` (centres undefined): the z-score is inactive: -0.65.

On to `COc1ccccc1OP(C)(=O)Nc1ccc(C)c(C)c1` (centres undefined), for which the z-score is inactive: 0.49.

`CN(C)CCOC(=O)C(O)(c1ccccc1)C1CCCC1` (centres undefined): the z-score is inactive: 0.47.

In the case of `COc1ccc(OP(C)(=O)Nc2ccccn2)cc1` (centres undefined), the z-score is inactive: 0.71.

In the case of `CCc1ccc(OP(C)(=O)O)cc1`, the z-score is inactive: 0.47.

Turning to `CP(=O)(Nc1ccccn1)Oc1ccccc1` (centres undefined), the z-score is inactive: 0.52.

For the molecule `COc1ccccc1OP(C)(=O)Nc1ccc(C)cc1C` (centres undefined), the z-score was inactive: 1.1.

Turning to `Cc1c(NP(C)(=O)Oc2ccc(C(C)C)cc2)c(=O)n(-c2ccccc2)n1C` (centres undefined), the z-score is inactive: 0.91.

`CP(=O)(Nc1ccccc1F)Oc1ccccc1` (centres undefined): the z-score was inactive: -0.13.

For the molecule `CP(=O)(Nc1ccccc1)Oc1ccc(F)cc1` (centres undefined), the z-score is inactive: -0.58.

As to `CCN(CC)CCCOC(=O)C(O)(c1ccccc1)C1CCCCC1` (centres undefined), the z-score was inactive: 0.19.

For the molecule `CN(C)CCOC(=O)C(O)(c1ccccc1)C1CCCCC1` (centres undefined), the z-score was inactive: -0.73.

With `COc1ccc(OP(C)(=O)Nc2cccc(Br)c2)cc1` (centres undefined), the z-score is inactive: -1.06.

Consider `CCOP(C)(=S)SCC(=O)NC(C)(CC)C(=O)O` (centres undefined), for which the z-score is inactive: 0.68.

Turning to `Cc1ccccc1NP(C)(=O)Nc1ccccc1C`, the z-score was inactive: 0.51.

For `CP(=O)(Nc1ccc2c(c1)OCCO2)Oc1ccccc1` (centres undefined), the z-score was inactive: -0.34.

Regarding `Cc1nc2ccc3ccccc3c2s1.O=[N+]([O-])c1cc([N+](=O)[O-])c(O)c([N+](=O)[O-])c1`, the z-score is inactive: -0.88.

Turning to `COc1ccccc1OP(C)(=O)Nc1c(C)cccc1C` (centres undefined), the z-score was inactive: -0.37.

`Cc1cc(C)cc(OP(C)(=O)Nc2ccc(C)cc2C)c1` (centres undefined): the z-score is inactive: 0.28.

For `Cc1cc(C)cc(OP(C)(=O)Nc2ccccn2)c1` (centres undefined), the z-score was inactive: 0.84.

With `Cc1ccc(C)c(NP(C)(=O)Oc2ccccc2)c1` (centres undefined), the z-score was inactive: 0.51.

Regarding `COc1ccc(OP(C)(=O)Nc2cccc(F)c2)cc1` (centres undefined), the z-score is inactive: 0.22.

For `COc1ccccc1OP(C)(=O)Nc1ccc(C)cc1` (centres undefined), the z-score was inactive: 2.29.

In the case of `Cc1ccc(NP(C)(=O)Oc2ccccc2)c(C)c1` (centres undefined), the z-score is inactive: -0.32.

For the molecule `CP(=S)(Nn1cnnc1)Oc1ccccc1` (centres undefined), the z-score is inactive: -0.23.

Turning to `CP(=O)(NC(=O)Nc1ccccc1)Oc1ccccc1` (centres undefined), the z-score was inactive: 1.14.

Turning to `CP(=O)(Nc1ccccn1)Oc1ccc(Cl)cc1` (centres undefined), the z-score was inactive: 0.08.

Consider `CCOP(C)(=S)SCC(=O)NC(C)C(=O)O` (centres undefined), for which the z-score was inactive: 0.22.
